Measured values reported in PubChem BioAssay AID504326 (The Scripps Research Institute Molecular Screening Center, 2011).
This is a selection; strong and weak results do not stand in their true shares. The source made the active and inactive calls. Rule as the data show it: active = activation above about 18%; inactive = the rest.

Amino acid sequences for entries named in this document (tags omitted).
UniProt P35372, whole entry, looked up: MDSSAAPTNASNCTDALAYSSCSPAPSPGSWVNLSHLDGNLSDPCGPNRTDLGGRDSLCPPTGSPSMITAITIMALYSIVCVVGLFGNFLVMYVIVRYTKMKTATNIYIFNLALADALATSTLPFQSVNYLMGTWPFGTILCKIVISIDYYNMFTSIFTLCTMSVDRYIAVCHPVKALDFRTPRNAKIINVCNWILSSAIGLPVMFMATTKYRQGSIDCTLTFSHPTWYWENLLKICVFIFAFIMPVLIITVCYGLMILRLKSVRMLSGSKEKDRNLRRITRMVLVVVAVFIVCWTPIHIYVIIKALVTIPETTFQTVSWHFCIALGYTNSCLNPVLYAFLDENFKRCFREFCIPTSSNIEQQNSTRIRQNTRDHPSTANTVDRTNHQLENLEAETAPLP
UniProt P41143, whole entry, looked up: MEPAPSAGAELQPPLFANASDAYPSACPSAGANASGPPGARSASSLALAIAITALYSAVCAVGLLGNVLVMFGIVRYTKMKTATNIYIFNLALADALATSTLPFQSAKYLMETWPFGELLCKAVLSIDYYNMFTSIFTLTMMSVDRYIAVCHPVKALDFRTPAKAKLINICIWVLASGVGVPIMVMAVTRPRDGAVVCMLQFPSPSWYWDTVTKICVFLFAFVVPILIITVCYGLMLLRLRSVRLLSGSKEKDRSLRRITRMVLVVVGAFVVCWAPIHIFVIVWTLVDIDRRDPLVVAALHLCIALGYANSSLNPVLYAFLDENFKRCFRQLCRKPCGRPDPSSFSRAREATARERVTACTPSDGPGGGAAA

What follows are compounds tested against Mu-type opioid receptor (Homo sapiens) + Delta-type opioid receptor (Homo sapiens) (UniProt P35372+P41143) (assay: agonists of OPRM1-OPRD1 heterodimerization, primary screen, cell-based, luminescence (AID 504326;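 also: 0% = vehicle-treated cells and 100% = reference agonist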)). Conditions: cells, at 9.3 µM, hits give high values.

| SMILES | activation |
| --- | --- |
| O=C(c1ccccc1)N1CCn2c(nc3ccccc32)C1 | inactive: -1.1% |
| CCc1ccc(S(=O)(=O)N2c3ccc(C)cc3C3CN(C)CCC32)cc1 (centres undefined) | inactive: -2.1% |
| CCc1cccc(C)c1N(C(=O)Cn1c(COC)nc2ccccc21)C(C)COC (centres undefined) | inactive: -2.04% |
| O=[N+]([O-])c1ccc2c(c1)nc1n2CCN(c2ccccc2)C1 | inactive: -2.11% |
| O=C(Cn1cnc2c(NC(=O)OCc3ccccc3)ncnc21)NCCN1CCOCC1 | inactive: -1.45% |
| CC(C)NC(=O)Cn1c(SCC(=O)NC2CCCC2)nc2ccccc21 | inactive: -3.19% |
| N=c1n(CCN2CCCC2)c2ccccc2n1CC(O)c1ccc(Cl)c(Cl)c1 (centres undefined) | inactive: 1.46% |
| COc1ccc2c(c1)C1(Nc3ccccc3-c3nc4ccccc4n31)C(=O)N2C (centres undefined) | inactive: -2.53% |
| CC(C)[C@H](NC(=O)N1CCn2c1nc1ccccc12)C(=O)NC1CC1 | inactive: -2.27% |
| COc1cccc(NC(=O)[C@H](CC(C)C)NC(=O)N2CCn3c2nc2ccccc23)c1 | inactive: -0.77% |
| C=CCn1c(=O)c2c(nc3n2CCN3c2cccc(Cl)c2C)n(C)c1=O | inactive: -2.68% |
| CN(C)CCn1c(NCc2ccc3c(c2)OCO3)nc2ccccc21 | inactive: -2.02% |
| COC(=O)C[C@H](NC(=O)Cn1cnc2c(NCc3ccccc3)ncnc21)C(=O)OC | inactive: -2.13% |
| COP1(=S)c2c(C)nn(CCC#N)c2N=C(c2ccc(F)cc2)N1C (centres undefined) | inactive: -1.66% |
| Cc1ccc(C)c(S(=O)(=O)N2CCN(C(=O)Cn3cnc4c3c(=O)n(C)c(=O)n4C)CC2)c1 | inactive: -0.23% |
| O=C(C1CCN(S(=O)(=O)c2cccc3nsnc23)CC1)N1CCn2c1nc1ccccc12 | inactive: -14.3% |
| CSc1nc(N)nc2c1ncn2CC(=O)Nc1ccc(C)c(C)c1 | inactive: -1.86% |
| N=c1n(CCN2CCCCC2)c2ccccc2n1CC(=O)c1cccs1 | inactive: -0.73% |
| O=C(Cn1cnc2c(OCc3ccccc3)ncnc21)N1CCN(c2ccccn2)CC1 | inactive: -0.47% |
| O=C(Nc1ccccc1C(F)(F)F)N1CCC(n2c(=O)[nH]c3ccccc32)CC1 | inactive: -1.25% |
| N#CCC(=O)N/N=C\c1cccc(OC/C=C/c2ccccc2)c1 | inactive: 3.46% |
| CC(C)[C@H](NC(=O)N1CCn2c1nc1ccccc12)C(=O)N[C@H](Cc1ccccc1)C(=O)O | inactive: -1.25% |
| COC(=O)[C@H](Cc1ccc(O)cc1)NC(=O)Cn1cnc2c(SC)nc(N)nc21 | inactive: 0.17% |
| CC(C)[Si]1(C(C)C)OCC2OC(n3cnc4c(N)ncnc43)C(N)C2O[Si](C(C)C)(C(C)C)O1 (centres undefined) | inactive: 0.31% |
| NC(=O)CC(NC(=O)c1cccc(Br)c1)c1ccc(NC2CCN(Cc3ccccc3)CC2)c([N+](=O)[O-])c1 (centres undefined) | inactive: -1.51% |
| N=c1n(CCN2CCCCC2)c2ccccc2n1CC(O)c1ccc(Cl)c(Cl)c1 (centres undefined) | inactive: 5.23% |
| Cc1ccc(S(=O)(=O)Nc2ccc(Cl)cc2)cc1NC(=O)Cn1cnc2c1c(=O)n(C)c(=O)n2C | inactive: -0.17% |

| SMILES | activation |
| --- | --- |
| CC(C)NC(=O)CSc1nc2ccccc2n1CC(=O)N(C(C)C)C(C)C | inactive: 0.06% |
| Cc1ccc2c(c1)C1CN(C)CCC1N2C(=O)c1ccco1 (centres undefined) | inactive: -2.2% |
| O=C(Cn1c(NCCO)nc2ccccc21)Nc1cccc(S(=O)(=O)N2CCCC2)c1 | inactive: -2.24% |
| CCN(CC)c1ccc(CNc2nc3ccccc3n2CCN2CCOCC2)cc1 | inactive: -2.89% |
| O=C(O)CCc1nn2c3ccccc3n(CCN3CCCCC3)c2nc1=O | inactive: 1.17% |
| Cc1cnc(NC(=O)Cn2cnc3c2c(=O)n(C)c(=O)n3C)s1 | inactive: -2.81% |
| Cc1ccc(Cn2nnnc2CN2CCC(n3nnc4cc(C(F)(F)F)ccc43)CC2)cc1 | inactive: 8.2% |
| Cc1ccc(-c2csc(NCCn3c(-c4ccncc4)nc4cc(C(F)(F)F)ccc43)n2)cc1 | inactive: -2.15% |
| Nc1nonc1-c1nc2ccccc2n1CC(=O)NC1CCCC1 | inactive: -1.96% |
| CC(C)(C)NC(=O)Cn1c(SCC(=O)NC2CC2)nc2ccccc21 | inactive: -2.88% |
| CSc1nc(N)nc2c1ncn2CC(=O)NCc1ccc2c(c1)OCO2 | inactive: -3.62% |
| COc1ccc(N/C(=N/P(=O)(N2CCOCC2)N2CCOCC2)N2CCOCC2)cc1 | inactive: -3.2% |
| CN(C)C(=O)Cn1c(SCC(=O)NCc2ccc3c(c2)OCO3)nc2ccccc21 | inactive: -1.12% |
| CCN(CC)S(=O)(=O)c1ccc(OC)c(NC(=O)Cn2cnc3c2c(=O)n(C)c(=O)n3C)c1 | inactive: -2.92% |
| O=C(Cn1cnc2c(OCc3ccccc3)ncnc21)NCc1ccccn1 | inactive: -0.85% |
| Cn1c(=O)c2ncn(CC(=O)Nc3cccc(-c4nc5ccccc5s4)c3)c2n(C)c1=O | inactive: -0.96% |
| c1ccc2c(c1)nc1n2CCN1CCNC1CCCCC1 | inactive: -3.99% |
| COc1cc(NC(=O)Cn2cnc3c(NCc4ccccc4)ncnc32)cc(OC)c1OC | inactive: -2.25% |
| Cc1cc2ncn(C3CC(=O)N(Cc4ccccc4)C3=O)c2cc1C (centres undefined) | inactive: 1.61% |
| O=[N+]([O-])c1cc(Oc2ccc([N+](=O)[O-])cc2C(F)(F)F)cc([N+](=O)[O-])c1 | active: 18.9% |
| CN(c1ccccc1)S(=O)(=O)c1cccc(NC(=O)Cn2cnc3c2c(=O)n(C)c(=O)n3C)c1 | inactive: 0.01% |
| CN(C)CCn1c(=N)n(CC(O)c2ccc(Cl)c(Cl)c2)c2ccccc21 (centres undefined) | inactive: 6.41% |
| Cc1ccc(CNC(=O)Cn2cnc3c(OCc4ccccc4)ncnc32)o1 | inactive: -2.99% |
| COc1cc(NC(=O)[C@@H](NC(=O)N2CCn3c2nc2ccccc23)C(C)C)cc(OC)c1 | inactive: -2.83% |
| Nc1nonc1-c1nc2ccccc2n1CC(=O)N1CCN(c2ccc(F)cc2)CC1 | inactive: 4.56% |
| Cn1c(=O)[nH]c(=O)c2c1nc(CN1CCN(c3ccc(F)cc3)CC1)n2CCN1CCOCC1 | inactive: -2.57% |
| COc1ccc2nc(NP(=O)(c3ccccc3)c3ccccc3)sc2c1 | inactive: -2.82% |
